Yeast mating assay 1: variants of the scFv Ab-14

The measurements come from Engelhart et al. 2022 (doi:10.1038/s41597-022-01779-4) through the FLAb antibody collection.

Target: peptide PDVDLGDISGINAS, taken from heptad repeat 2 (HR2) of SARS-CoV-2 spike.

Parent: Ab-14, a human scFv built as VH, the linker GGGGSGGGGSGGGGS, VL. Only the CDRs of the light chain vary.
VH: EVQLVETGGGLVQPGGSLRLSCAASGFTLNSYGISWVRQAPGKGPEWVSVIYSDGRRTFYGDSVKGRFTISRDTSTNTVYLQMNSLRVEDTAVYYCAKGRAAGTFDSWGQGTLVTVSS
VL: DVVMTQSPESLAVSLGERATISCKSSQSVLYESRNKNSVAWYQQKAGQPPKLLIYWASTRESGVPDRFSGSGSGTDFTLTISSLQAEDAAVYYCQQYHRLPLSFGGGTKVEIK

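The parent was found by panning a naive human phage display library on the peptide. Variants in AAYL50 differ from the parent at up to three CDR positions; double and triple changes were sampled at random. AlphaSeq pools MATa yeast showing the antibodies with MATalpha yeast showing the peptide. The frequency of each diploid, read from paired DNA barcodes, reflects how well the two displayed proteins bind. Scores were corrected for input abundance and mapped to Kd with protein pairs of known affinity run in the same pool. The assay was run in three technical replicates.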

Changes read parent residue, position, new residue, counted from the first residue of the VL shown. The read-out is the apparent dissociation constant on a log10 scale (nM): the lower, the stronger. A mean of the replicates is given; it leaves out those without a signal. "nd" marks a missing value. The strain was present, yet no cells mated with the target were sequenced in any replicate, which points to weak or no binding.

| # | changes | log10 Kd (nM), mean | replicates with signal | control signals |
|---|---|---|---|---|
| 1 | S26W/E32I/A57D | 4.20 | 2 of 3 | 2 of 9 |
| 2 | S33M/S62P/Y97E | 2.58 | 3 of 3 | 1 of 9 |
| 3 | S25R/S28W/T59W | 2.42 | 1 of 3 | 0 of 9 |
| 4 | V29Q/E32F/H98A | 0.14 | 3 of 3 | 0 of 9 |
| 5 | R34M/V39N/L100Q | 5.69 | 2 of 3 | 6 of 9 |
| 6 | E32T/V39I/R99D | 2.02 | 3 of 3 | 5 of 9 |
| 7 | S28Q/Y31V/V39R | nd | 0 of 3 | 0 of 9 |
| 8 | S26H/A57M/L102N | nd | 0 of 3 | 2 of 9 |
| 9 | S28F/A57M/L102A | 3.86 | 1 of 3 | 4 of 9 |
| 10 | Y31M/N35L/V39T | 5.86 | 3 of 3 | 5 of 9 |
| 11 | K36Y/A40K/S58G | 4.91 | 2 of 3 | 1 of 9 |
| 12 | L30M/E61P | 1.52 | 3 of 3 | 1 of 9 |
| 13 | S26H/H98W/S103Y | 1.59 | 3 of 3 | 0 of 9 |
| 14 | Q27D/S58V/T59L | 1.64 | 3 of 3 | 2 of 9 |
| 15 | S33H/R99A | 1.96 | 3 of 3 | 4 of 9 |
| 16 | E61G/Q95D | 1.53 | 3 of 3 | 1 of 9 |
| 17 | S28H/P101K | 4.56 | 2 of 3 | 4 of 9 |
| 18 | S58T/T59K/R60H | 3.32 | 3 of 3 | 1 of 9 |
| 19 | N35D/A40N/E61F | nd | 0 of 3 | 0 of 9 |
| 20 | S33P/Q95M | 1.86 | 3 of 3 | 4 of 9 |
| 21 | A40T/H98C/S103W | nd | 0 of 3 | 0 of 9 |
| 22 | S28Q/E32M/P101G | 2.31 | 3 of 3 | 4 of 9 |
| 23 | N37W/V39T/Q95Y | 3.34 | 1 of 3 | 1 of 9 |
| 24 | S28L/R99W/L102I | nd | 0 of 3 | 2 of 9 |
| 25 | S28K/V29A/L30T | 1.22 | 3 of 3 | 2 of 9 |
| 26 | R60N/R99C/L102R | 3.88 | 2 of 3 | 4 of 9 |
| 27 | K24G/N35G/S62L | 1.63 | 3 of 3 | 2 of 9 |
| 28 | S33Q/R99C | nd | 0 of 3 | 0 of 9 |
| 29 | E32A/T59F/E61N | nd | 0 of 3 | 1 of 9 |
| 30 | S26G/E32L/H98N | 3.59 | 3 of 3 | 1 of 9 |
| 31 | V29D/H98I/L100V | nd | 0 of 3 | 1 of 9 |
| 32 | K24A/Y97Q/S103Q | 2.56 | 3 of 3 | 0 of 9 |
| 33 | V39P/Y97T | 5.28 | 2 of 3 | 3 of 9 |
| 34 | S28P/S38L/A57D | 3.50 | 1 of 3 | 2 of 9 |
| 35 | Y31V/S58C/P101K | 2.12 | 3 of 3 | 0 of 9 |
| 36 | S25L/N37Q | nd | 0 of 3 | 0 of 9 |
| 37 | S25H/E32W | nd | 0 of 3 | 0 of 9 |
| 38 | N35T/R60F/E61S | 3.98 | 2 of 3 | 3 of 9 |
| 39 | S26T/S33E/H98K | 5.79 | 1 of 3 | 0 of 9 |
| 40 | K36I/R60E/H98Y | nd | 0 of 3 | 0 of 9 |
| 41 | S26A/Q95I/R99N | 4.47 | 2 of 3 | 7 of 9 |
| 42 | Y31N/W56H/A57G | 1.02 | 3 of 3 | 1 of 9 |
| 43 | K24C/S26C/V39A | nd | 0 of 3 | 1 of 9 |
| 44 | S28F/Y31R/S33K | 4.04 | 1 of 3 | 2 of 9 |
| 45 | K24L/H98T/S103H | nd | 0 of 3 | 0 of 9 |
| 46 | N37P/A40F | 4.71 | 3 of 3 | 4 of 9 |
| 47 | N37E/A57F/Y97Q | nd | 0 of 3 | 1 of 9 |
| 48 | S25E/V29Q/R99V | nd | 0 of 3 | 0 of 9 |
| 49 | R34Q/N37R/S38V | 4.52 | 2 of 3 | 5 of 9 |
| 50 | W56K/Q95D/P101K | nd | 0 of 3 | 1 of 9 |
| 51 | E32R/S103P | 1.57 | 3 of 3 | 2 of 9 |
| 52 | K24D/V39F/E61P | 4.87 | 2 of 3 | 2 of 9 |
| 53 | V29N/L30V/A40V | 5.39 | 1 of 3 | 5 of 9 |
| 54 | S26I/S62T/Q95K | 0.93 | 3 of 3 | 1 of 9 |
| 55 | V29A/S58P/R99C | 4.25 | 2 of 3 | 4 of 9 |
| 56 | V29T/L30P | 0.59 | 3 of 3 | 1 of 9 |
| 57 | Q27P/Q95F | 4.86 | 3 of 3 | 2 of 9 |
| 58 | S33E/E61Y/S103T | 2.13 | 3 of 3 | 1 of 9 |
| 59 | Q27F/K36A/Q96S | nd | 0 of 3 | 0 of 9 |
| 60 | K24F/N37F/A57L | nd | 0 of 3 | 0 of 9 |
| 61 | K24R/H98V/P101Y | 5.89 | 1 of 3 | 1 of 9 |
| 62 | V29Q/N37F/A57H | nd | 0 of 3 | 1 of 9 |

Parent in this assay: reference entry 0.65, copy in this library 1.68. Three control strains display no target. For library AAYL50, 18% of the pairings with them gave a signal, with a median of 4.19 and one signal in twenty below 2.99, so weak values seen in few replicates may be background. For each scFv, signals with the empty controls are counted beside the result.